# Assay results reported in patent US7723329B2, “Substituted-3-sulfonylindazole derivatives as 5-hydroxytryptamine-6 ligands” (Wyeth LLC, priority 2005, dated 2010).
# Protein sequences, listed by entry. Tags and fused reporters are not part of them.
# UniProt P50406, whole entry: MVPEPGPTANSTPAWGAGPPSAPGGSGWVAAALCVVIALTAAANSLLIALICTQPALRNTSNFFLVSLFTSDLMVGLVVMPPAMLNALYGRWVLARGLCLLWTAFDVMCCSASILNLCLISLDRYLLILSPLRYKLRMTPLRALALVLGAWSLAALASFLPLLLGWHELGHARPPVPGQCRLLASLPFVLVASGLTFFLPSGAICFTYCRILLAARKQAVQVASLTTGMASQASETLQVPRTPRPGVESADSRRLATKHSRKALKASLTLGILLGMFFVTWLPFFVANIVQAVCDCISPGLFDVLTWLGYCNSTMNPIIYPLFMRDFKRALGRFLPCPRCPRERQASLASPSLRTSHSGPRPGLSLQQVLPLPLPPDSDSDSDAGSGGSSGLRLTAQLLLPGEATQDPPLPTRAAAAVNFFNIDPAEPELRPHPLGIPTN
# Structures can show the parent of a compound that is named as a salt.
# Biological target: T1, human cloned 5-HT6 receptors (Homo sapiens, UniProt P50406)
# T1 construct: expressed in transfected cells; host or cells: HeLa cells
# Test: 5-HT6 binding affinity, [3H]-LSD displacement
# Conditions: membranes of Hela cells expressing human cloned 5-HT6 receptors; [3H]-LSD 3.0 nM; 120 minutes at room temperature
# Protocol: The affinity of test compounds for the serotonin 5-HT6 receptor was evaluated in the following manner. Cultured Hela cells expressing human cloned 5-HT6 receptors were harvested and centrifuged at low speed (1,000×g) for 10.0 minutes to remove the culture media. The harvested cells were suspended in half volume of fresh physiological phosphate buffered saline solution and recentrifuged at the same speed. This operation was repeated. The collected cells were then homogenized in ten volumes of 50 mM Tris.HCl (pH 7.4) and 0.5 mM EDTA. The homogenate was centrifuged at 40,000×g for 30.0 min and the precipitate was collected. The obtained pellet was resuspended in 10 volumes of Tris.HCl buffer and recentrifuged at the same speed. The final pellet was suspended in a small volume of Tris.HCl buffer and the tissue protein content was determined in aliquots of 10-25 μl volumes. […]
# The bound complex caught on the filter disk was allowed to air dry and the radioactivity is measured in a Packard TopCount® equipped with six photomultiplier detectors, after the addition of 40.0 μl Microscint®-20 scintillant to each shallow well. The unifilter plate was heat-sealed and counted in a PackardTopCount® with a tritium efficiency of 31.0%.
# Specific binding to the 5-HT6 receptor was defined as the total radioactivity bound less the amount bound in the presence of 10.0 μM unlabeled methiothepin. […]
compound,measurement,value
"CC(C)[C@H](N)CNc1ccc2[nH]nc(S(=O)(=O)c3cccc4ccccc34)c2c1 [Example 160, (S)-3-Methyl-N1-[3-(naphthalene-1-sulfonyl)-1H-indazol-5-yl]-butane-1,2-diamine dihydrochloride]",Ki,0.01 to 10 nM
